DDE Tn6 FP inh – disrupts Tn6 cyclic peptide binding to fibrin D-Dimer-E complex | P02675 | Fibrin DD(E) TRITC-Tn6 fluorescence polarization displacement | inhibition, % at 8.3 µM | 370,000 compounds, 0.21% hits;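 active = inhibition above a per-campaign cutoff: mean of compounds within control limits plus 3 SD, cut at about 15% in these data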
UUG fidelity – modulators of start codon recognition fidelity in yeast; AID 602363; activity score, % at 18.7 µM; S. cerevisiae UUG-firefly luciferase reporter, luminescence/redox ratio; actives 0.13% (n = 350,000);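 active = replicate mean at a twofold rise or more, about +100% in these data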;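 note: firefly luciferase made from a UUG start codon reports start codon fidelity; reporter light over untreated wells divided by growth signal over untreated wells; some hits fall short of that in this replicate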
Tn7 DDE FP – inhibitors of Tn7 peptide binding to human fibrin DD(E); FP displacement of FITC-Tn7 peptide from fibrin DD(E); 0% = median of compound wells per plate; AID 720508; inhibition, % at 8.3 µM; 370,000 compounds, 0.13% hits;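 active = inhibition above the mean of compounds falling within the control limits plus 3 SD of them, cut at about 14% in these data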
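Assay system: Human fibrin DD(E) protein | Medium: Tris buffer with calcium and detergent, pH 7.8 | Reagent: 0.1 µM fluorescent Tn7 | Compound dosing: Single point at 8.3 µM | Times: 10 min preincubation, 3 h with tracer, room temperature | Detection: Fluorescence polarization of the labelled Tn7 tracer | Controls: Aha-Tn7 high control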
PglD DTNB – blocks C. jejuni PglD acetyltransferase activity | 360,000 compounds, 0.098% hits | purified PglD enzyme, DTNB colorimetric CoA detection | inhibition, % at 12.5 µM; in the data active = inhibition above about 16%, passing the limit was not always enough
Tn7 DDE conf – DD(E)-Tn7 binding inhibition, FP confirmation; 460 compounds, 5% hits; FP displacement of TRITC-Tn7 peptide from DD(E); 0% set at plate's compound-well median; inhibition, % at 8.3 µM; AID 720628; shares compounds with Tn7 DDE FP;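 active = inhibition above the campaign cutoff, the mean of compounds within control limits plus 3 SD, cut at about 14% in these data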;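 also: displacers lower polarization since freed probe rises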
DDE Tn7 FP ctr – counter-screen hit for Tn7 peptide-fibrin DD(E) binding disruption; shares compounds with Tn7 DDE FP; AID 720633; TRITC-Tn7 probe displacement, fluorescence polarization; 460 compounds, 3% hits; inhibition, % at 8.3 µM;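 active = inhibition above the cutoff, the mean of compounds lying between the control bounds plus 3 SD of those compounds, cut at about 17% in these data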
A number is an active result; n = inactive; x = no result; ! = repeats disagree. The list is not random: actives were taken first. Their share in the collection is about 0.45%.

SMILES	DDE Tn6 FP inh	UUG fidelity	Tn7 DDE FP	PglD DTNB	Tn7 DDE conf	DDE Tn7 FP ctr
NS(=O)(=O)c1ccc(NC(=O)CSc2ncnc3ccccc23)cc1	n	x	14	x	n	n
NS(=O)(=O)c1cccc(NC(=O)CSc2ncnc3ccccc23)c1	n	x	n	x	x	x
COc1ccc(S(=O)(=O)N[C@H]2CC[C@H](CCNC(=O)Cc3ccccn3)O[C@@H]2CO)cc1	x	n	x	n	x	x
CN1c2ccc(Br)cc2[C@H]2[C@H](CCN2S(=O)(=O)c2cccc(F)c2)[C@@H]1CO	x	n	x	n	x	x
Cc1ccc(NC(=O)Cn2c(O)c(N=NC(N)=S)c3ccccc32)cc1	n	n	n	n	x	x
Cc1ccc(NC(=O)Cn2c(O)c(N=NC(N)=O)c3ccccc32)cc1	n	n	14	n	n	n
CC(C)c1cn(CC[C@H]2CC[C@@H](NS(=O)(=O)c3ccc(Cl)cc3)[C@@H](CO)O2)nn1	x	n	x	n	x	x
N#CC1=C(N)C(C#N)(C#N)[C@H](c2c(F)cccc2F)[C@H]2CC3(CC=C12)OCCO3	n	n	16	n	n	n
C[C@@H]1CCCCO[C@@H](CN(C)Cc2ccc(C(F)(F)F)cc2)[C@@H](C)CN([C@@H](C)CO)C(=O)c2cc(NS(C)(=O)=O)ccc2O1	x	n	x	n	x	x
O=C(Nc1ccccc1)N1CCN(Cc2ccc3c(c2)OCO3)CC1	n	n	n	n	x	x
Cc1cc(C)cc(NC(=O)N2CCN(Cc3ccc4c(c3)OCO4)CC2)c1	n	x	14	x	n	n
COCC#Cc1ccc2c(c1)O[C@@H](CN(C)C(=O)C1CC1)[C@H](C)CN([C@@H](C)CO)S2(=O)=O	x	n	x	n	x	x
Cc1cc2nc3c(=O)[nH]c(=S)[nH]c3nc2cc1NC(=O)C(F)(F)F	n	n	16	n	n	n
O=c1[nH]c(=S)[nH]c2nc(-c3ccccc3)cnc12	n	x	n	x	x	x
Cc1ccc(NC(=O)CSc2nnc3ccc(-c4ccncc4)nn23)cc1	n	n	n	n	x	x
Cc1ccc(CSc2nnc3ccc(-c4ccncc4)nn23)cc1	n	n	14	n	n	n
Cn1c(=O)c(NC2CCCCC2)c2c3c(cccc31)C(=O)c1ccccc1-2	n	x	19	x	n	n
CC(=O)Nc1ccc(Nc2c3c4c(cccc4n(C)c2=O)C(=O)c2ccccc2-3)cc1	n	n	19	n	n	n
CC(=O)Nc1ccc(NC2=CC(=O)c3ccccc3C2=O)cc1	n	n	n	n	x	x
O=C(COC(=O)c1ccc(Cl)cc1)NCC1CCCCC1	n	x	15	x	n	n
COc1ccccc1-c1ccc2c(c1)O[C@@H](CN(C)S(=O)(=O)c1ccc(F)cc1)[C@@H](C)CN([C@H](C)CO)S2(=O)=O	x	x	x	n	x	x
CCOC(=O)/C(C)=N/NC(=O)c1ccc([N+](=O)[O-])cc1	n	x	n	x	x	x
CC(=N\NC(=O)c1ccc([N+](=O)[O-])cc1)/C(=N/O)C(=O)Nc1ccccc1	n	n	16	n	n	n
CCC(C)[C@H](NC(=O)N1CCC(C)CC1)C(=O)O (stereo not given in full)	n	x	14	x	n	n
C=C(C)C1CC=C(C)/C(=N/NC(=O)c2ccc(NC(=O)CC)cc2)C1 (stereo not given)	n	n	n	n	x	x
SMILES	DDE Tn6 FP inh	UUG fidelity	Tn7 DDE FP	PglD DTNB	Tn7 DDE conf	DDE Tn7 FP ctr
C=C(C)C1CC=C(C)/C(=N/NC(=O)c2ccc(NC(=O)CCC)cc2)C1 (stereo not given)	n	n	14	n	n	n
COc1ccccc1CNC(=O)C[C@H]1CC[C@H](NC(C)=O)[C@@H](CO)O1	x	n	x	n	x	x
CC1=CC(C)(C)NC(=S)N1c1cccc(C)c1	n	n	14!	n	n	n
CC1=CC(C)(C)NC(=S)N1c1ccc(C)cc1	n	n	n	n	x	x
NC(=O)C(CCc1nc2ccccc2[nH]1)NS(=O)(=O)c1ccccc1 (stereo not given)	n	x	15	x	n	n
Cc1ccc(S(=O)(=O)NCCc2nc3ccccc3[nH]2)cc1	n	x	n	x	x	x
O=[N+]([O-])c1cccc(S(=O)(=O)N2CN(c3ccc(Br)cc3)c3nc4ccccc4nc32)c1	n	n	17	n	n	n
CO[C@@H]1CN(C)C(=O)c2cc(NC(C)=O)ccc2OC[C@H](C)N(C(=O)c2ccccn2)C[C@@H]1C	x	n	x	n	x	x
COc1ccc2[nH]c(=O)c(CN(C)C(=O)c3ccncc3)cc2c1	n	n	15	n	n	n
COc1ccc2[nH]c(=O)c(CN(C(=O)c3ccncc3)C(C)C)cc2c1	n	x	n	x	x	x
O=C(C[C@@H]1CC[C@H](NC(=O)CN2CCOCC2)[C@H](CO)O1)NCc1cccc(F)c1	x	x	x	n	x	x
CCN(CC)CCCNc1ccc2ncn3c4ccc(O)cc4c(=O)c1c23	n	x	40	x	n	n
COc1cccc(C2SCC(=O)N2c2ccc(C)cc2)c1OC (stereo not given)	n	n	n	n	x	x
COc1ccc(N2C(=O)CSC2c2cccc(OC)c2OC)cc1 (stereo not given)	n	x	14	x	n	n
O=C(c1cc2ccccc2o1)N1CCCCCC1	n	n	n	n	x	x
O=C(c1oc2ccccc2c1N1CCCCC1)N1CCCCC1	n	n	15	n	n	n
C[C@H](CO)N1C[C@H](C)[C@H](CN(C)S(=O)(=O)c2ccc(Cl)cc2)OCCCC[C@H](C)Oc2ccc(NS(=O)(=O)c3ccccc3)cc2C1=O	x	n	x	n	x	x
Cc1cccc(NC(=O)CCS(=O)(=O)c2ccccc2)n1	n	n	14	n	n	n
O=C(Cc1ccccc1)N1CC[C@@H]2[C@H]1c1cc(-c3ccccc3)ccc1N[C@@H]2CO	x	n	x	n	x	x
C=CCOc1ccc2c(c1)CCC1C2CCC2(C)C(O)C(O)CC12 (stereo not given)	n	n	14	n	n	n
Cc1cccc(NC(=O)Nc2ccc3c(c2)C(=O)N(C)[C@H]2CC[C@H](CC(=O)NCc4ccccc4Cl)O[C@@H]2CO3)c1	x	x	x	n	x	x
C[C@H](O)C#Cc1cnc2c(c1)C(=O)N([C@H](C)CO)C[C@H](C)[C@H](CN(C)C(=O)Cc1ccccn1)O2	x	n	x	n	x	x
COc1ccc(NC(=O)COC(=O)CC2Sc3ccccc3NC2=O)cc1 (stereo not given)	n	n	15	n	n	n
COc1ccc(CN(C)C[C@H]2OCCCC[C@H](C)Oc3ccc(NS(=O)(=O)c4cccs4)cc3C(=O)N([C@H](C)CO)C[C@H]2C)cc1	x	n	x	n	x	x
COc1ccc(NC(=O)C[C@H]2C(=O)N(c3ccc(Br)cc3)C[C@@H]2c2ccc(OC)cc2)cc1	n	n	14	n	n	n
COc1ccc(NC(=O)C[C@H]2C(=O)N(c3ccc(OC)cc3)C[C@@H]2c2ccc(Br)cc2)cc1	n	n	n	n	x	x
COc1ccc(C(C)(C)C)cc1NC(=O)c1cncc(Br)c1	n	n	16	n	n	n
CO[C@H]1CN(C)C(=O)c2ccc(NC(C)=O)cc2OC[C@H](C)N(C(=O)c2ccncc2)C[C@@H]1C	x	n	x	n	x	x

Compound activity from PubChem.
